According to article PMC11408749, “Molecular mechanisms for DNA methylation defects induced by ICF syndrome‐linked mutations in DNMT3B” (Protein Science : A Publication of the Protein Society, 2024):

Assays:
[1] = target: T1, DNMT3BΔ570 ([…]), wild type (human); experiment: AUC; sedimentation velocity, 40,000 rpm, 15 h, 20 C; 20 mM Tris-HCl pH 8.0, 300 mM NaCl, 1 mM TCEP, 5% glycerol; WT DNMT3BΔ214-3L at 2.5, 5.0 and 6.25 uM, mutant complexes at 5 uM; c(s) model in SEDFIT; conditions: both partners purified
T1 construct: DNA methyltransferase 3B (DNMT3B), human, […] (MTase domain); Modified pET28a(+) with N-terminal 6xHis-SUMO tag and TEV site; also called WT DNMT3BΔ570; MTase domain of DNMT3B; source: E. coli Rosetta2 (DE3) pLysS, co-purified with DNMT3L (HisTrap, TEV cleavage, heparin, gel filtration); not shown: 6xHis-SUMO, N-terminal, cleaved

DNMT3BΔ570(R823G) ([…]) = target: T2, DNMT3BΔ570(R823G) ([…]) (human, R823G); experiment: as above; conditions: both partners purified
T2 construct: DNA methyltransferase 3B (DNMT3B), human, […] (MTase domain), ICF syndrome-linked mutation R823G; Modified pET28a(+) with N-terminal 6xHis-SUMO tag and TEV site; Mutation found in ICF patients; also called R823G (in the DNMT3BΔ570‐3L complex); source: E. coli Rosetta2 (DE3) pLysS, co-purified with DNMT3L (HisTrap, TEV cleavage, heparin, gel filtration); not shown: 6xHis-SUMO, N-terminal, cleaved

[2] = target: T3, DNMT3BΔ214 ([…]), wild type (human); experiment: co-purification; cell suspensions of DNMT3B and DNMT3L mixed 4:1 and lysed together; HisTrap FF, TEV cleavage, second HisTrap (flow-through), HiTrap Heparin, Superdex 200 gel filtration; both proteins seen by SDS-PAGE; conditions: partners not purified
T3 construct: DNA methyltransferase 3B (DNMT3B), human, […] (N-terminal tail truncated; PWWP, ADD and MTase domains); Cloned in a pSOL expression vector (Lucigen) as pSol-tev-DNMT3BΔ214; also called WT DNMT3BΔ214; N‐terminal tail‐truncated DNMT3B; source: E. coli Rosetta2 (DE3) pLysS, co-purified with DNMT3L (HisTrap, TEV cleavage, heparin, gel filtration)

DNMT3BΔ214 ([…]) H814R = target: T4, DNMT3BΔ214 ([…]) H814R (human, H814R); experiment: as above; conditions: partners not purified
T4 construct: DNA methyltransferase 3B (DNMT3B), human, […], ICF syndrome-linked mutation H814R; pSOL vector (Lucigen); its tag is not described; Mutation found in ICF patients; also called H148R (misprint in legends); source: E. coli Rosetta2 (DE3) pLysS, co-purified with DNMT3L (HisTrap, TEV cleavage, heparin, gel filtration)

DNMT3BΔ214 ([…]) D817G = target: T5, DNMT3BΔ214 ([…]) D817G (human, D817G); experiment: as above; conditions: partners not purified
T5 construct: DNA methyltransferase 3B (DNMT3B), human, […], ICF syndrome-linked mutation D817G; pSOL vector (Lucigen); its tag is not described; Mutation found in ICF patients; source: E. coli Rosetta2 (DE3) pLysS, co-purified with DNMT3L (HisTrap, TEV cleavage, heparin, gel filtration)

DNMT3BΔ214 ([…]) V818M = target: T6, DNMT3BΔ214 ([…]) V818M (human, V818M); experiment: as above; conditions: partners not purified
T6 construct: DNA methyltransferase 3B (DNMT3B), human, […], ICF syndrome-linked mutation V818M; pSOL vector (Lucigen); its tag is not described; Mutation found in ICF patients; also called V181M (misprint in a legend); source: E. coli Rosetta2 (DE3) pLysS, co-purified with DNMT3L (HisTrap, TEV cleavage, heparin, gel filtration)

DNMT3BΔ214 ([…]) R823G = target: T7, DNMT3BΔ214 ([…]) R823G (human, R823G); experiment: as above; conditions: partners not purified
T7 construct: DNA methyltransferase 3B (DNMT3B), human, […], ICF syndrome-linked mutation R823G; pSOL vector (Lucigen); its tag is not described; Mutation found in ICF patients; also called R823G (in the DNMT3BΔ214‐3L complex); source: E. coli Rosetta2 (DE3) pLysS, co-purified with DNMT3L (HisTrap, TEV cleavage, heparin, gel filtration)

Measured: binding result

B1: DNA MTase‐like domain of DNMT3L (residues 179–379) (domain or fragment, human, UniProt Q9UJW3 179-379, looked up)
chain: FETVPVWRRQPVRVLSLFEDIKKELTSLGFLESGSDPGQLKHVVDVTDTVRKDVEEWGPFDLVYGATPPLGHTCDRPPSWYLFQFHRLLQYARPKPGSPRPFFWMFVDNLVLNKEDLDVASRFLEMEPVTIPDVHGGSLQNAVRVWSNIPAIRSRHWALVSEEELSLLAQNKQSSKLAAKWPTKLVKNCFLPLREYFKYFS
notes: Modified pET28a(+) with N-terminal 6xHis tag and TEV site; source: E. coli Rosetta2 (DE3) pLysS, co-purified with DNMT3B (HisTrap, TEV cleavage, heparin, gel filtration); not shown: 6xHis, N-terminal, cleaved
binds: all assays above
